{"source": "patent US5576436A", "about": "“Fluorescent ligands” (Pharmaceutical Discovery Corporation, priority 1994, dated 1996)", "key": {"Kappa 1": {"test_system": "Kappa 1", "assay": "Fluorescent ligand binding, kappa1 opioid receptor"}, "kappa1 opioid receptor": {"test_system": "kappa1 opioid receptor", "assay": "Radioligand ([^3 H]U69,593) binding, kappa1 opioid receptor", "details": "read-out: Radiolig. Kd:Ki; Table I"}}, "note": "pKd, pKi: −log10 of the molar value. Like-named read-outs stand apart in the source and are kept apart here."}
{"smiles": "CN(C(=O)Cc1cc(Cl)c(Cl)cc1NC(=O)CCCNC(=O)c1ccc2c(c1)C(=O)OC21c2ccc(O)cc2Oc2cc(O)ccc21)[C@H]1CCCC[C@@H]1N1CCCC1", "values": [{"measurement": "Bmax", "setting": "Kappa 1; Table I, density of binding of the ligand", "result": 0.04, "unit": "pmol/mg prot."}, {"measurement": "pKd", "setting": "Kappa 1; read-out: Fluores. Kd, Table I, centrifugation", "result": 8.00}, {"measurement": "pKd", "setting": "Kappa 1; read-out: affinity constant (K) as determined by direct fluorescence measurement, Example 1, binding to receptor in tissue", "result": 8.00}, {"measurement": "pKi", "setting": "kappa1 opioid receptor", "result": 6.70}]}
